Consider two molecules from PubChem BioAssay AID602429 (Sanford-Burnham Center for Chemical Genomics, 2012).

Protein sequences, listed by entry. Tags and fused reporters are not part of them.
UniProt P63165, whole entry: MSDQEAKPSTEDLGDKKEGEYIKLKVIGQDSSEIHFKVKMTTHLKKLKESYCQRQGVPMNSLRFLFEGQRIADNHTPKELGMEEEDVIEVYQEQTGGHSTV

The list shows a part of the results, in another mix than the full data. The source made the active and inactive calls. Cut-off read from the data, not from the text of the source: active = inhibition above about 37%; inactive = the rest.

This test concerns the target Small ubiquitin-related modifier 1 (Homo sapiens) (UniProt P63165). The experiment in a line: SUMO1 binding to interaction partners, disruption – biochemical, uHTS, primary screen (AID 602429). Particulars: SUMO1 binding to a labelled peptide, TR-FRET, 1 h; at 20 µM; hits give high values. For orientation: TR-FRET usually uses a lanthanide donor and a delayed reading to cut background.
As to `CCC(=O)N(c1ccccc1)C1(COC)CCN(CCn2nnn(CC)c2=O)CC1`, the inhibition (in general, the change of the read-out against control, counted positive when it falls) was inactive: 3.46%. Then `CCC(=O)N(c1ccccc1)C1(COC)CCN(CCc2cccs2)CC1`, with inactive: -0.82%.
